Assay results published in patent US9663498B2 (priority 2013, dated 2017).

Test: in vitro
Conditions: human, microsomes, pH 7.4

Question: For COc1ccc(S(=O)(=O)n2cc(C)c3ccc(Br)cc32)cc1N1CCNCC1 [Example 68, 6-bromo-1-((4-methoxy-3-(piperazin-1-yl)phenyl)sulfonyl)-3-methyl-1H-indole], which CLint scaled is on record?
Answer: The CLint scaled was 1.5 L/h/kg.
